Results taken from patent US20260382772A1, “KETO-AMIDE-BASED FIBROBLAST ACTIVATION PROTEIN-TARGETED LIGAND LINKED TO AN IMAGING OR THERAPEUTIC AGENT, COMPOSITIONS, AND METHODS OF USE” (published 2026).

What was measured:
[1] = tested on: MDA-MB-231, KB, and HT29 cancers in tumor-bearing mice; assay: Radiotherapy efficacy in tumor-bearing mice; conditions: 37 MBq single intravenous dose, FIG. 37
Procedure: Efficacy studies were conducted on mice expressing tumors from various cell lines. Briefly, Balb/c mice were inoculated on their shoulders with 1×10^5 cells of 4T1 cells, whereas nu/nu mice were inoculated on their shoulders with 5×10^6 cells of HT29 (a human colorectal adenocarcinoma cell line), KB (tumor cell line HeLa), MDA-MB-231 (a human breast cancer cell line), or HEK-FAP cells.
4T1, HT29, KB, and MDA-MB231 tumor-bearing mice were randomly divided into control and treatment groups (n=5/group) to ensure similar starting tumor volumes. Each cohort received a single intravenous injection of saline or with 37 MBq/mouse of [^177Lu] Lu-FAP8-PEG3-IP-DOTA conjugate (Lu-Conjugate 24′) to HT29, KB and MDA-MB231 tumor-bearing mice and 37 MBq, 18.5 MBq and 9.25 MBq/mouse of [^177Lu] Lu-FAP8-PEG3-IP-DOTA (Lu-Conjugate 24′) to 4T1 tumor bearing mice on day 0.
Tumors were then measured with a caliper in two perpendicular directions every other day. Mice were euthanized upon reaching one of the predefined endpoint criteria according to IACUC regulations.
(§1) Mice were weighed every other day during radiotherapy as a gross evaluation of health. Tissue sections from organs of interest (n=1-8 per organ per mouse) were preserved and examined blindly for lesions by a board-certified veterinary pathologist.

HT29 tumor bearing mice = assay: Toxicology (H&E histopathology) in HT29 tumor-bearing mice; conditions: single dose 37 MBq
Excerpt: as §1
To assess toxicology in the HT29 tumor-bearing mice treated with Lu-Conjugate 24′, 4 μm sections of mouse heart, liver, and kidney tissue samples were taken following radiotherapy treatments of a single dose of [^177Lu] Lu-FAP8-PEG3-IP-DOTA (Lu-Conjugate 24′) and 37 MBq radiotherapy in athymic nu/nu mice bearing HT29 tumors. 1.0 mCi was used for the treatment. The tissue samples were stained with H&E and representative photomicrographs were taken (FIG. 47; Table 13).

[2] = tested on: HEK-FAP tumor bearing mice; assay: Biodistribution of ^177Lu-FAP8-PEG3-IP-DOTA in HEK-FAP tumor bearing mice; conditions: 5.0 nmol/mouse
Excerpt: Balb/c mice were inoculated on their shoulders with 1×10^5 cells of 4T1 cells, whereas nu/nu mice were inoculated on their shoulders with 5×10^6 cells of HT29 (a human colorectal adenocarcinoma cell line), KB (tumor cell line HeLa), MDA-MB-231 (a human breast cancer cell line), or HEK-FAP cells.
For the first study, two different tumor-bearing mice (4T1 and HEK-hFAP) were intravenously injected with [^111In] In-FAP8-PEG3-IP-DOTA (In-Conjugate 24′) (0.74 MBq/mouse, 1-10 nmol/mouse) or [^177Lu] Lu-FAP8-PEG3-IP-DOTA (Lu-Conjugate 24′) (7.4 MBq/mouse, 0.3 nmol-5 nmol/mouse).
At indicated time points (1 hour, 4 hours, 24 hours, 72 hours, 120 hours, and 168 hours post-injection), mice were assessed and/or euthanized by CO2 asphyxiation and organs of interest were harvested, excess blood was rinsed, dried, weighed, and then analyzed by gamma counter, and the results were decay corrected and presented as the percentage of the injected dose per gram of tissue (% ID/g)±standard deviation (SD).

## COc1ccc(CNC(=O)C(=O)[C@@H]2CC(F)(F)CN2C(=O)CNC(=O)c2ccnc3ccc(OCC(=O)NCCOCCOCCOCCNC(=O)[C@H](CCCCNC(=O)CCCc4ccc(I)cc4)NC(=O)CN4CCN(CC(=O)O)CCN(CC(=O)O)CCN(CC(=O)O)CC4)cc23)cc1OC.[Lu+3]
[1]
  weight: did not adversely affect the subject's weight
[1]; vs control groups
  tumor growth and overall survival: positive effect on both tumor growth and overall survival in all cell lines as compared to the control groups
HT29 tumor bearing mice
  histopathologic findings, treated vs untreated mice: no significant difference in histopathologic findings between treated and untreated mice
HT29 tumor bearing mice; individual treated mice M6-M10
  Liver histopathology: NDL
  Lungs histopathology: NDL
[2]; 1 h
  Blood uptake: 21.69 ± 4.75 % ID/g
  Bone marrow uptake: 0.63 ± 0.39 % ID/g
  Heart uptake: 1.16 ± 0.32 % ID/g
  Intestine uptake: 1.14 ± 0.48 % ID/g
  Kidneys uptake: 5.61 ± 2.08 % ID/g
  Liver uptake: 8.39 ± 1.48 % ID/g
  Lungs uptake: 1.79 ± 0.65 % ID/g
  Spleen uptake: 4.21 ± 1.23 % ID/g
  Stomach uptake: 0.75 ± 0.12 % ID/g
  Tumor uptake: 7.79 ± 1.32 % ID/g
  Tumor/Blood: 0.34 ± 0.04
  Tumor/Bone marrow: 30.29 ± 35.11
  Tumor/Kidneys: 1.5 ± 0.31
[2]; 4 h
  Blood uptake: 14.19 ± 2.67 % ID/g
  Bone marrow uptake: 1.07 ± 0.80 % ID/g
  Heart uptake: 0.5 ± 0.26 % ID/g
  Intestine uptake: 0.23 ± 0.26 % ID/g
  Kidneys uptake: 3.35 ± 1.93 % ID/g
  Liver uptake: 4.37 ± 1.31 % ID/g
  Lungs uptake: 1.54 ± 1.08 % ID/g
  Spleen uptake: 1.44 ± 0.48 % ID/g
  Stomach uptake: 0.15 ± 0.07 % ID/g
  Tumor uptake: 10.13 ± 1.7 % ID/g
  Tumor/Blood: 0.70 ± 0.04
  Tumor/Bone marrow: 22.34 ± 20.76
  Tumor/Kidneys: 3.37 ± 1.78
[2]; 24 h
  Blood uptake: 4.23 ± 1.81 % ID/g
  Bone marrow uptake: 0.56 ± 0.39 % ID/g
  Heart uptake: 0.54 ± 0.32 % ID/g
  Intestine uptake: 0.62 ± 0.35 % ID/g
  Kidneys uptake: 1.54 ± 1.08 % ID/g
  Liver uptake: 3.98 ± 0.96 % ID/g
  Lungs uptake: 0.58 ± 0.17 % ID/g
  Spleen uptake: 1.59 ± 0.55 % ID/g
  Stomach uptake: 0.37 ± 0.16 % ID/g
  Tumor uptake: 13.99 ± 4.61 % ID/g
  Tumor/Blood: 3.63 ± 1.16
  Tumor/Bone marrow: 33.58 ± 19.14
  Tumor/Kidneys: 12.76 ± 6.73
[2]; 72 h
  Blood uptake: 1.22 ± 0.51 % ID/g
  Bone marrow uptake: 1.31 ± 0.88 % ID/g
  Heart uptake: 0.54 ± 0.31 % ID/g
  Intestine uptake: 0.29 ± 0.10 % ID/g
  Kidneys uptake: 1.42 ± 0.51 % ID/g
  Liver uptake: 3.73 ± 1.25 % ID/g
  Lungs uptake: 0.63 ± 0.44 % ID/g
  Spleen uptake: 4.46 ± 2.52 % ID/g
  Stomach uptake: 0.26 ± 0.10 % ID/g
  Tumor uptake: 16.89 ± 13.2 % ID/g
  Tumor/Blood: 13.03 ± 4.45
  Tumor/Bone marrow: 12.69 ± 6.67
  Tumor/Kidneys: 13.23 ± 6.51
[2]; 120 h
  Blood uptake: 0.29 ± 0.07 % ID/g
  Bone marrow uptake: 0.922 ± 1.07 % ID/g
  Heart uptake: 0.30 ± 0.14 % ID/g
  Intestine uptake: 0.195 ± 0.05 % ID/g
  Kidneys uptake: 1.425 ± 1.01 % ID/g
  Liver uptake: 2.37 ± 0.88 % ID/g
  Lungs uptake: 0.335 ± 0.17 % ID/g
  Spleen uptake: 2.50 ± 0.71 % ID/g
  Stomach uptake: 0.127 ± 0.02 % ID/g
  Tumor uptake: 11.48 ± 3.24 % ID/g
  Tumor/Blood: 43.42 ± 20.68
  Tumor/Bone marrow: 30.40 ± 25.91
  Tumor/Kidneys: 11.78 ± 7.78
[2]; 168 h
  Blood uptake: 0.22 ± 0.05 % ID/g
  Bone marrow uptake: 1.825 ± 0.6 % ID/g
  Heart uptake: 0.42 ± 0.22 % ID/g
  Intestine uptake: 0.15 ± 0.05 % ID/g
  Kidneys uptake: 0.62 ± 0.26 % ID/g
  Liver uptake: 2.3 ± 0.81 % ID/g
  Lungs uptake: 0.67 ± 0.25 % ID/g
  Spleen uptake: 1.82 ± 0.61 % ID/g
  Stomach uptake: 0.15 ± 0.05 % ID/g
  Tumor uptake: 12.05 ± 5.15 % ID/g
  Tumor/Blood: 55.10 ± 18.20
  Tumor/Bone marrow: 8.35 ± 2.00
  Tumor/Kidneys: 22.40 ± 10.87
